The source of these data is patent publication US6489535B1, “Non-mammalian transgenic animal having an adult onset neurodegenerative phenotype” (priority 1999, dated 2002).

Where two headings read alike, the source gives them in different places.

The data set has as its system AON mutant fly strain. The class given is in vivo, Drosophila melanogaster. On the procedure: Each compound was prepared over a range of dilutions and each was tested for the activity of alleviating the adult onset neurodegeneration condition. The compound dilutions were uptaken by either the larva or adult flies. The compound dilutions were mixed into the nutrient media and this served as the food/water source for either larva or flies. The adult onset neurodegeneration symptoms and their timelines were monitored for each compound dilution and compared to the no treatment control. Compounds examined here included: beta-estradiol, zinc chloride, sodium chloride, water, chocolate, and phosphate buffered saline.
To test whether this AON mutant condition is a good model for human AON conditions (Alzheimer's, stroke, Parkinson's, etc.), compounds known to influence human AON conditions were administered orally to the mutant AON fly strain. In addition, compounds were also tested in the AON mutant fly strain that were known not to influence human AON conditions. Finally, a complex mixture with unknown influence on human AON conditions was tested in the AON mutant fly strain.
To validate the AON fly for drug discovery relevant to human biology and diseases, this fly strain was subjected to an extensive array of chemicals that are known to have their effect on the human nervous system.

In the case of `Nc1nc2ccc(OC(F)(F)F)cc2s1` [Riluzole], the L.D. entry is, setting by setting: (dose 1 mg/ml) “L.D. 100”; (dose .1 mg/ml) “L.D. 100 (some”.
